The values below are quoted from earlier work in patent US20110136245A1, “SYNERGISTIC INTERACTIONS OF PHENOLIC COMPOUNDS FOUND IN FOOD” (priority 2009, published 2011).

The conditions of this series: published values (Jorgensen & Skibsted 1998; Foley et al. 1999); cited from earlier work.

As for (+)-catechin, the one-electron reduction potential is on record as 0.36 V.
